Assay results taken from ChEMBL document CHEMBL5030510, “Designed β-Hairpins Inhibit LDH5 Oligomerization and Enzymatic Activity” (J Med Chem, 2021).

Target: L-lactate dehydrogenase A chain (Homo sapiens, UniProt P00338)
Experiment: Inhibition of recombinant full length N-terminal His-tagged human LDHA expressed in Escherichia coli using pyruvate as substrate and NADH as cofactor incubated for 2 hrs by fluorescence assay
Outline: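 Reassociation activity assay: 900 nM LDHA stock in phosphate pH 7.4/EDTA/0.05% BSA, acidified 2 min with glycine pH 2.5/BSA. Peptide added in 0.25 M phosphate pH 7.6 and incubated 2 h at RT. Aliquot diluted, then pyruvate (3 mM final) and NADH (0.3 mM final) added. IC50 from dose-response fit.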

IC50: > 40 µM
SMILES: CC(C)C[C@@H]1NC(=O)[C@H](CCCNC(=N)N)NC(=O)[C@H](CCCNC(=N)N)NC(=O)[C@@H](NC(=O)[C@@H]2CCC(=O)N2)CSSC[C@@H](C(=O)N[C@@H](CCCNC(=N)N)C(=O)NCC(=O)N[C@@H](CCCNC(=N)N)C(=O)O)NC(=O)[C@H](Cc2ccc(O)cc2)NC(=O)[C@H]([C@@H](C)O)NC(=O)[C@H](C(C)C)NC(=O)[C@@H]2CSSC[C@H](NC1=O)C(=O)N[C@@H](Cc1ccc(O)cc1)C(=O)N[C@@H](CCCCN)C(=O)N[C@@H](CCC(N)=O)C(=O)N[C@@H](CCCNC(=N)N)C(=O)N2
